Test results from paper PMC2818599.

Experiments:
[1] = target: HLA-DR DRB1 *0802 (human); assay: radioligand binding
[2] = target: HLA-DR DRB5 *0101 (human); assay: radioligand binding

IC50 [1]: 634 nM
IC50 [2]: 392 nM
Substance: HER-2/neu.783 (peptide)
